Laboratory results reported in US20030082803A1, “Cell cycle control” (priority 1999, published 2003).

Sequences of proteins named here, by UniProt entry; tags and fusion partners are left off.
UniProt P11440, whole entry: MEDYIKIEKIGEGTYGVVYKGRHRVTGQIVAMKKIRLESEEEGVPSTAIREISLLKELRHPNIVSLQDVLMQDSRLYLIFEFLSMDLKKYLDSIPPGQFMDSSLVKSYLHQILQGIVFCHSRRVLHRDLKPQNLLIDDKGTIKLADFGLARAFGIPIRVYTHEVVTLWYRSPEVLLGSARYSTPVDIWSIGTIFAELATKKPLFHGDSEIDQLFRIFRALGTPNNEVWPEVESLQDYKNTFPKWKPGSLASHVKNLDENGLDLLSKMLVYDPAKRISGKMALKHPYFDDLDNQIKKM
UniProt P24860, whole entry partner: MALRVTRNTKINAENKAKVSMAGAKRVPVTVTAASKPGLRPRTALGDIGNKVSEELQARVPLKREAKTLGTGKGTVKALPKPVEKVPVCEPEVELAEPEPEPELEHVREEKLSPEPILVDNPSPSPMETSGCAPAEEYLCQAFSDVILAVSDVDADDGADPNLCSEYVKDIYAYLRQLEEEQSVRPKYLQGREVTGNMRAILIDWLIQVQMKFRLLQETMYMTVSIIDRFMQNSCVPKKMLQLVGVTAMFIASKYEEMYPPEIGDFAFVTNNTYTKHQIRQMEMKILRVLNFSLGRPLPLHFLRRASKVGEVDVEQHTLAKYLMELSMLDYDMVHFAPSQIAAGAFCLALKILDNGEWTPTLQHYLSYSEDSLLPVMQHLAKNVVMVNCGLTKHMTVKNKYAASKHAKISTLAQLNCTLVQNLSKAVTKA

Assays:
Saos2 cells = test: Cell cycle arrest by flow cytometry of PI-stained Saos2 cells
Experimental: Ro09-3033 imposes a cell cycle arrest in Saos2 cells. (A) Structure of the Cdk2 inhibitor Ro09-3033. (B) Saos2 cells were grown in the presence of DMSO (0.5%), 0.1% FCS for 48 hours or 10 μM Ro09-3033 for 48 hours. Flow cytometry profiles of PI-stained cells are shown together with the percentage of cells in G0/G1, S or G2/M.
In preparation for flow cytometry, cells were resuspended in 300 μl of PBS supplemented with 1% FCS. Cells were then fixed by the drop-wise addition of 900 μl of ice cold 95% ethanol while vortexing and left on ice for 10 minutes. Cells were collected by centrifugation (3,000×g, 5 mins), washed twice in 700 μl of cold PBS before being finally resuspended in PBS. Cells were stained by the addition of 2.5 mg/ml propidium iodide (Sigma) and 0.5 mg/ml RNAase A and analysed on a Beckman-Coulter flow cytometer with WinMDi software.

Cdk2 [1] = molecular target: Cdk2 (Homo sapiens, UniProt P24941); conditions: reference (6); cited from earlier work
mES cells [2] = test: Northern blot analysis of mES cell marker genes Rex-1 and Oct4; conditions: inhibitor treatment up to 8 passages
Experimental: (§1) Cdk2 activity levels determine the rate of mES cell division but not cell cycle structure. (A) mES cells were grown for up to 8 passages in the presence (+) or absence (−) of Ro09-3033 (2 μM). Cdk2, cyclin E and cyclin B-associated H1 kinase activities were assayed as described previously after immunoprecipitation from whole cell lysates (100 μg protein). Input loading control was determined by probing immunoblots (15 μg lysate protein) with α-Cdk2 and α-Oct4 polyclonal antibodies. Quantitation of H1 kinase activities are shown in the lower panel as the average of two independent experiments. (B) Northern blot analysis of Oct4, Rex-1 and GAPDH transcripts from mES cells grown with (+) or without (−) inhibitor (2 μM) for the number of passages indicated. RNA was resolved by agarose gel electrophoresis, blotted and hybridized with [^32P]-labelled Oct4, Rex-1 and GAPDH probes (15 μg total RNA per lane). […] (C) After 8 passages in the presence (+) or absence (−) of 2 μM Ro09-3033, mES and mEPL cells were fixed and stained with PI and analysed by flow cytometry. […] Generation times of mEPL cells were not determined in this experiment.
Cells were scraped from petri dishes following incubation for 5 minutes in TEN buffer at room temperature. […] Membranes were scanned and hybridisation signals quantitated by scanning on a phosphorimager.

mES cells [3] = test: Generation time, BrdU incorporation and viability of mES cells grown with inhibitor
Experimental: Cdk2 activity levels determine the rate of mES cell division but not cell cycle structure. (A) mES cells were grown for up to 8 passages in the presence (+) or absence (−) of Ro09-3033 (2 μM). Cdk2, cyclin E and cyclin B-associated H1 kinase activities were assayed as described previously after immunoprecipitation from whole cell lysates (100 μg protein). Input loading control was determined by probing immunoblots (15 μg lysate protein) with α-Cdk2 and α-Oct4 polyclonal antibodies. Quantitation of H1 kinase activities are shown in the lower panel as the average of two independent experiments. (B) Northern blot analysis of Oct4, Rex-1 and GAPDH transcripts from mES cells grown with (+) or without (−) inhibitor (2 μM) for the number of passages indicated. RNA was resolved by agarose gel electrophoresis, blotted and hybridized with [^32P]-labelled Oct4, Rex-1 and GAPDH probes (15 μg total RNA per lane). Lanes designated +/− were RNA samples from mES cells grown for either 2 or 12 passages with inhibitor followed by 4 passages in the absence of inhibitor. (C) After 8 passages in the presence (+) or absence (−) of 2 μM Ro09-3033, mES and mEPL cells were fixed and stained with PI and analysed by flow cytometry. The mean generation time (two independent experiments) for mES cells over this period is indicated in addition to the % of cells in G1, S and G2/M phases. Generation times of mEPL cells were not determined in this experiment.
D3 mES cells (1) were cultured in the absence of feeders on tissue culture grade plastic-ware pre-coated with 0.1% gelatin-phosphate buffered saline (PBS), as described previously (2). ES cell culture medium consisted of Dulbecco's Modified Eagle Medium (DMEM, Gibco BRL) supplemented with 10% foetal calf serum (FCS, Commonwealth Serum Laboratories), 1 mM L-glutamine, 0.1 mM 2-mercaptoethanol, 100 U/ml penicillin, 100 U/ml streptomycin and 1000 U/ml recombinant human LIF (ESGRO) at 37° C. under 10% CO2. mEPL cells were formed and maintained by culturing as described previously (2) in ES-media containing 50% conditioned media (MedII) supplemented with 1 mM L-glutamine, 0.1 mM 2-mercaptoethanol, 100 U/ml penicillin, 100 U/ml streptomycin and 1,000 U/ml recombinant LIF at a density of 2×10^4 cells/cm^2. mEPL cells were passaged every 48 hours. MedII conditioned media was prepared from HepG2 cells (ATCC HB-8065) grown for 5 days in DMEM supplemented with 10% FCS, 40 mg/ml gentamycin and 1 mM L-glutamine, after being seeded at 5×10^4 cells/ml. Cell supernatants were collected, filter sterilized then stored at 4° C. for up to 2 weeks. […]

Cdc2-cyclin B = Cdc2-cyclin B (Mus musculus, UniProt P11440); test: Histone H1 kinase assay of cyclin B immunoprecipitated from mES lysates; conditions: 2 μM and up to 20 μM
Experimental: as §1
(§2) Protein A Sepharose (PAS) beads (Pharmacia) were stored in BSA (1 mg/ml), 0.05% sodium azide at 4° C. as a 50% slurry. […] [^32P]-labelled histone H1 was quantitated from dried gels using a phosphorimager (Molecular Dynamics).

cyclin E kinase activity = cyclin E kinase activity (Mus musculus, UniProt P97377); test: Histone H1 kinase assay of cyclin E immunoprecipitated from mES whole cell lysates; conditions: 2 μM, mES cells, standard assay conditions
Experimental: as §1, §2

mES cells [4] = test: Cell cycle arrest and cell cycle structure by flow cytometry of PI-stained mES cells
Experimental: as §1
In preparation for flow cytometry, cells were resuspended in 300 μl of PBS supplemented with 1% FCS. […] Cells were stained by the addition of 2.5 mg/ml propidium iodide (Sigma) and 0.5 mg/ml RNAase A and analysed on a Beckman-Coulter flow cytometer with WinMDi software.

Cdk2 [5] = molecular target: Cdk2 (Mus musculus, UniProt P97377); test: Histone H1 kinase assay of Cdk2 immunoprecipitated from mES whole cell lysates; conditions: 2 μM, mES cells, standard assay conditions
Experimental: as §1, §2

Cdk2-cyclin E = Cdk2-cyclin E (Homo sapiens, UniProt P24941); test: Protein kinase assay for the characterization of Ro09-3033 (recombinant Cdk-cyclin complexes)
Experimental: Protein kinase assays for the characterization of Ro09-3033 were performed as described in (6). Recombinant human Cdc2-cyclin B, Cdk2-cyclin E and Cdk4-cyclin D, expressed from baculovirus expression constructs in insect cells, were kind gifts from Dr Wade Harper (Baylor College of Medicine, Houston, Tex.).

CO[C@@]1(C)[C@H](O)C(=O)C(C)=C2OC(=O)c3c(C)cc(O)c(C)c3O[C@@H]21
Cell cycle arrest in Saos2 cells (Saos2 cells; 10 μM for 48 hours): imposes a cell cycle arrest
Concentration required to produce a uniform cell cycle arrest (Saos2 cells; Saos2 cells): 20 µM
Cell cycle arrest (Saos2 cells; low micromolar range, FIG. 3B): enforces a cell cycle arrest
Binding to the ATP binding site of Cdk2 (Cdk2 [1]): binds irreversibly
Effect on expression pattern of mES cell marker genes Rex-1 and Oct4 (mES cells [2]): no effect
Percentage of cells that incorporated BrdU (mES cells [3]; 24 hour labelling period, treated mES cells, untreated 98%): 95%
Increase in cell cycle time (mES cells [3]; inhibitor-treated versus untreated mES cells): 66%
Generation time of mES cells (mES cells [3]; inhibitor-treated, 2 μM, 8 passages, untreated 11 hours): 18.3 h
Effect on cell viability (mES cells [3]; mES cells, PI exclusion and absence of sub-2n DNA content): no effect on cell viability
Effect on activity of other Cdks immunoprecipitated from mES lysates, such as Cdc2-cyclin B (Cdc2-cyclin B): no reproducible effect
Inhibition of immunoprecipitated cyclin E kinase activity (cyclin E kinase activity): 50-60%
Effect on cell cycle structure (mES cells [4]; inhibitor-treated mES cells, 2 μM): no major effect
Concentration required for uniform cell cycle arrest in mES cells relative to most other cell types tested (mES cells [4]; versus Saos2 cells, NIH 3T3 fibroblasts and MEFs): > 5 fold
Inhibition of immunoprecipitated Cdk2 kinase activity (Cdk2 [5]): 50-60%
Selectivity for Cdk2 (Cdk2-cyclin E): highly selective for Cdk2
IC50 (Cdk2-cyclin E; read-out: IC50 for Cdk2, Table 1 is cited but not given): 20 nM
